Assay: cells
Settings: HEK293

Work on C[C@@]1(Oc2cc(F)c(S(=O)(=O)Nc3cscn3)cc2Cl)CCN(Cc2ccccc2)C1 yielded an IC50 of over 30 µM.

Source: ChEMBL document CHEMBL5728069, “Benzenesulfonamide compounds and their use as therapeutic agents” (2020)
